Sequences of proteins named here, by UniProt entry; tags and fusion partners are left off. Residues count along the entry.
UniProt O75643, 395-2136, chain 1 of 2: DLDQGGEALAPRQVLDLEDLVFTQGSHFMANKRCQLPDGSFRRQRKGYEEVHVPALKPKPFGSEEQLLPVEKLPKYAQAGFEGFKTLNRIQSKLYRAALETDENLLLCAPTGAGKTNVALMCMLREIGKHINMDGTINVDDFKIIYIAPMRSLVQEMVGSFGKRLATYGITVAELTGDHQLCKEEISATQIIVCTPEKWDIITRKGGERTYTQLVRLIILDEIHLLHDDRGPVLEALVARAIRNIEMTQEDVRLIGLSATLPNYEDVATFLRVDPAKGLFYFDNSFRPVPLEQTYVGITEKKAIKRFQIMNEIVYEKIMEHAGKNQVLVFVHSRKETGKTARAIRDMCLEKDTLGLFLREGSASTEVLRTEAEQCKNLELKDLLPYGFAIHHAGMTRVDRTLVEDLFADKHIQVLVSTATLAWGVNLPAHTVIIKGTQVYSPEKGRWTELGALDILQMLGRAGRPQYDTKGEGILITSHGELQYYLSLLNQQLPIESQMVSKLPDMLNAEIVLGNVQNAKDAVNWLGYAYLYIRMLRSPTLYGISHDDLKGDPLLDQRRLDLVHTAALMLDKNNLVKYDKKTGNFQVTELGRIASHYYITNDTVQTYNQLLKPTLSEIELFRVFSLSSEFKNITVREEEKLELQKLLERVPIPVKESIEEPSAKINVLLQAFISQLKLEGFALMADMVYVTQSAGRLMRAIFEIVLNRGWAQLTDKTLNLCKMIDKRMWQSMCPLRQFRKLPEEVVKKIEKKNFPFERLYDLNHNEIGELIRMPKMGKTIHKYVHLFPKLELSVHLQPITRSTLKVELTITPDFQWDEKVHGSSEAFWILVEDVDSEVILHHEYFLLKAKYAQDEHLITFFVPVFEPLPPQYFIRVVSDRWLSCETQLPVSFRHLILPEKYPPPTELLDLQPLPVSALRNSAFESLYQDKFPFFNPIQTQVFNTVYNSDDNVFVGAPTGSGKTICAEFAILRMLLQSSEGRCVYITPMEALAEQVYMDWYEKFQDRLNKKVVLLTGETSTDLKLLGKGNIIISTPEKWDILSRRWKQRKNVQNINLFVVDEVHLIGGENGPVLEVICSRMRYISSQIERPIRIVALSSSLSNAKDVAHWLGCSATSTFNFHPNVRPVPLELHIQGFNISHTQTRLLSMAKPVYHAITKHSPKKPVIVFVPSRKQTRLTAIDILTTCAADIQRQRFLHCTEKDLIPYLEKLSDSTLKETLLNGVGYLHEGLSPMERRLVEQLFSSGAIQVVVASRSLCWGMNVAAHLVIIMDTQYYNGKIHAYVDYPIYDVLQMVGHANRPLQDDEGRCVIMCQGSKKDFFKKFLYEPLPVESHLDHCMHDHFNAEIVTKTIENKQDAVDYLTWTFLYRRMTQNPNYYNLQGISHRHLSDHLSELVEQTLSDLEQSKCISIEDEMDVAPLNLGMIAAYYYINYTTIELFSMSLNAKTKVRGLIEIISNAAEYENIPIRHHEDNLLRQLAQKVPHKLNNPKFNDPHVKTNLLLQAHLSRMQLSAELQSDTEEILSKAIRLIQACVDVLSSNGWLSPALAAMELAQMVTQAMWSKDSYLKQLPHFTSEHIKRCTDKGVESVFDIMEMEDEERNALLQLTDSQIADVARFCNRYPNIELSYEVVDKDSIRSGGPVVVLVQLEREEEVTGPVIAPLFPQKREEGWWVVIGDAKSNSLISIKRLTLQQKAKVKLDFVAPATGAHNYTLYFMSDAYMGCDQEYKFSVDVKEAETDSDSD

According to paper PMC9629490 (Acta Crystallographica. Section D, Structural Biology, 2022):

Target: T1, human SNRNP200^395-2136–PRPF8^RH-JM complex (human, UniProt O75643 395-2136; Q6P2Q9 1760-2335)
T1 construct: human PRPF8 C-terminal fragment with the RH and JM domains, residues 1760-2335, as m9; source: Sf9 cells (baculovirus), co-produced, purified (Ni-NTA, TEV cleavage, second Ni-NTA, SEC); not shown: His10, N-terminal, cleaved
Assay: SEC; analytical SEC, Superdex 200 Increase PC3.2/30, 20 mM Tris-HCl pH 7.5, 250 mM NaCl, 0.5 mM DTT; proteins mixed in equimolar ratios, 30 min on ice; fractions analyzed by SDS-PAGE
Conditions: both partners purified

B1: human AAR2 (natural protein, UniProt Q9Y312 1-384, looked up)
chain: MAAVQMDPELAKRLFFEGATVVILNMPKGTEFGIDYNSWEVGPKFRGVKMIPPGIHFLHYSSVDKANPKEVGPRMGFFLSLHQRGLTVLRWSTLREEVDLSPAPESEVEAMRANLQELDQFLGPYPYATLKKWISLTNFISEATVEKLQPENRQICAFSDVLPVLSMKHTKDRVGQNLPRCGIECKSYQEGLARLPEMKPRAGTEIRFSELPTQMFPEGATPAEITKHSMDLSYALETVLNKQFPSSPQDVLGELQFAFVCFLLGNVYEAFEHWKRLLNLLCRSEAAMMKHHTLYINLISILYHQLGEIPADFFVDIVSQDNFLTSTLQVFFSSACSIAVDATLRKKAEKFQAHLTKKFRWDFAAEPEDCAPVVVELPEGIEMG
notes: human AAR2; The cleavage of the tag follows from the sentence that AAR2 1-364 was purified as AAR2 but with omission of the TEV cleavage step; also called WT AAR2; hAAR2; source: pFL vector, codon-optimized synthetic gene; purified, obtained as described previously (Santos et al., 2015); not shown: His10, N-terminal, cleaved
binding result: binds
